In published antibiotic growth screens (doi:10.1038/s41589-023-01349-8):
This is one part of the list.

Test system: A. baumannii ATCC 17978
Experiment: relative growth (fraction of control); higher = less inhibition
Details: 50 µM

| Compound | relative growth |
| --- | --- |
| CCCOc1cc(N)ccc1C(=O)OCCN(CC)CC.Cl | 1.08 |
| C[C@H](CO)N1C[C@H](C)[C@H](CN(C)C(=O)C2CCCCC2)Oc2cc(-c3cncnc3)ccc2S1(=O)=O | 0.976 |
| CC(CO)(CO)NS(=O)(=O)c1ccccc1 | 1.17 |
| CSc1nc(C)cc(OCCO)n1 | 0.988 |
| COC(=O)Nc1nc2cc(C(=O)c3ccc(F)cc3)ccc2[nH]1 | 1.17 |
| COc1ccc(CC(=O)c2ccc(O)cc2O)cc1 | 0.913 |
| COc1ccc(-c2cc(=O)c3c(O)cc(OC)c(OC)c3o2)c(OC)c1 | 1.18 |
| O=C(C[C@H]1C=C[C@H](NC(=O)Nc2ccc3c(c2)OCO3)[C@H](CO)O1)NCCCN1CCOCC1 | 1.04 |
| CCOC(=O)c1ccc(O)cc1 | 1.13 |
| COC(=O)Cn1c(=N)n(C)c2ccccc21 | 1.21 |
| C/C(=C/C(=O)N1CCN(C)CC1)C(=O)O | 0.936 |
| O=C(CN1CCOCC1)N[C@@H]1CC[C@H](CCNC(=O)C2CCC2)O[C@H]1CO | 0.955 |
| Cc1ccc(C(=O)c2ccc(CC(=O)[O-])n2C)cc1.[Na+] | 1.05 |
| COc1ccc2cc1Oc1ccc(cc1)C[C@H]1c3c(cc4c(c3Oc3cc5c(cc3OC)CCN(C)[C@@H]5C2)OCO4)CCN1C | 1 |
| CC(O)CC(C)(C)O (centres undefined) | 1.07 |
| C[C@H](CO)N1C[C@H](C)[C@@H](CN(C)C(=O)CN(C)C)Oc2ncc(C#CC(C)(C)O)cc2C1=O | 1.05 |
| CCN1C(=O)[C@H]2[C@H](O)CS[C@H]2C1=O | 0.878 |
| N#C[C@H](N)c1ccc(Cl)cc1 | 0.998 |
| COCC#Cc1ccc2c(c1)O[C@@H](CN(C)S(C)(=O)=O)[C@@H](C)CN([C@@H](C)CO)S2(=O)=O | 1.02 |
| Cc1ccc(S(=O)(=O)N2C[C@@H](O)COC[C@@H]3O[C@H](CC(=O)N[C@H]4CCN(Cc5ccccc5)C4)CC[C@H]32)cc1 | 1.11 |
| CNC(=O)c1c(O)c2ccccc2n(C)c1=O | 1 |
| CO[C@@H]1CN(C)C(=O)c2ccc(NS(=O)(=O)c3cn(C)cn3)cc2OC[C@H](C)N(Cc2cccc(F)c2)C[C@@H]1C | 0.944 |

| Compound | relative growth |
| --- | --- |
| Cn1c(=O)c2[nH]c(Br)nc2n(C)c1=O | 1.08 |
| O=C(C[C@@H]1CC[C@@H]2[C@H](COC[C@@H](O)CN2S(=O)(=O)c2ccccc2)O1)N1CCOCC1 | 1.03 |
| C[C@H]1CN([C@@H](C)CO)S(=O)(=O)c2ccc(C#CC3CC3)cc2O[C@@H]1CN(C)Cc1ccc(F)cc1 | 1.31 |
| C[C@H]1CN([C@@H](C)CO)S(=O)(=O)c2ccc(C#CC3CC3)cc2O[C@@H]1CN(C)C(=O)Cc1ccncc1 | 0.876 |
| CC(C)C[C@H]1NC(=O)N(C)C1=O | 0.89 |
| C[C@H](O)C#Cc1ccc2c(c1)O[C@H](CN(C)C(=O)c1ccncc1)[C@@H](C)CN([C@@H](C)CO)S2(=O)=O | 1.08 |
| COC(=O)CCCCC(=O)c1[nH]c(=O)[nH]c1C | 0.948 |
| O=c1[nH]nc(N2CCSCC2)[nH]1 | 0.977 |
| Cc1csc2sc(C(=O)Oc3ccc(Cl)cc3)c(C)c12 | 0.978 |
| O=C(N[C@H]1C=C[C@H](CC(=O)N2CCOCC2)O[C@H]1CO)c1ccc2c(c1)OCO2 | 1.31 |
| CCOC(=O)Cn1cnc2ccccc2c1=O | 1.12 |
| O=C(CCCCCCC(=O)Nc1ccccc1O)N/N=C/[C@H](O)[C@@H](O)[C@H](O)CO | 1.15 |
| CC(C)(C)NCC(O)c1ccc(O)c(CO)c1 (centres undefined) | 0.971 |
| O=C(/C=C/c1ccccc1)c1ccc(O)cc1O | 0.885 |
| Clc1ccc(Sc2ccc(-c3ccccn3)s2)cc1 | 0.962 |
| O=C(NCCN1CCOCC1)c1cccs1 | 1.13 |
| COc1cccc(NC(=O)N[C@H]2C=C[C@H](CC(=O)N3CCOCC3)O[C@@H]2CO)c1 | 1.06 |
| O=S(=O)(NCC[C@H]1CC[C@H](NS(=O)(=O)c2cccc(Cl)c2)[C@H](CO)O1)c1cccc(F)c1 | 0.996 |
| NC(=O)CSc1nnc(Cc2cc(=O)[nH]c(=O)[nH]2)n1-c1ccccc1 | 1.06 |
| Cc1ccc(S[C@]2(C(=O)NCC(C)C)CC(=O)N(Cc3ccccc3)[C@@H]2c2ccc(CO)cc2)cc1 | 0.853 |
| O=C(C[C@@H]1CC=CC[C@H](NC(=O)OCC2c3ccccc3-c3ccccc32)C(=O)OC[C@@H](Cc2c[nH]c3ccccc23)NC1=O)N[C@@H](CO)Cc1ccccc1 | 0.962 |
| Nc1ccc(Oc2ccc3ccccc3c2Cl)c(Cl)c1 | 0.781 |
